For this assay, the system named is muscarinic cholinergic receptor. Briefly: Muscarinic cholinergic radioreceptor assay ([3H] QNB competition, serum antidepressant levels). The conditions noted are these: Standard F, 0.04 μM amitriptyline, Table II. It is filed as binding, rat (Sprague-Dawley).

Compound `CN(C)CCC=C1c2ccccc2CCc2ccccc21` [amitriptyline] gave a CPM of 10780 CPM.

The record behind these values is patent US4299813A, “Assay kit and method” (priority 1979, dated 1981).
